Test results as given in article PMC11452043, “In vitro 5-LOX inhibitory and antioxidant potential of isoxazole derivatives” (PLOS ONE, 2024).
“And” between values parts separate entries of the source, which are not always exact repeats. Identical values can stand only once.

Chains of the proteins cited; added tags and fusions are not shown.
UniProt P09917, whole entry: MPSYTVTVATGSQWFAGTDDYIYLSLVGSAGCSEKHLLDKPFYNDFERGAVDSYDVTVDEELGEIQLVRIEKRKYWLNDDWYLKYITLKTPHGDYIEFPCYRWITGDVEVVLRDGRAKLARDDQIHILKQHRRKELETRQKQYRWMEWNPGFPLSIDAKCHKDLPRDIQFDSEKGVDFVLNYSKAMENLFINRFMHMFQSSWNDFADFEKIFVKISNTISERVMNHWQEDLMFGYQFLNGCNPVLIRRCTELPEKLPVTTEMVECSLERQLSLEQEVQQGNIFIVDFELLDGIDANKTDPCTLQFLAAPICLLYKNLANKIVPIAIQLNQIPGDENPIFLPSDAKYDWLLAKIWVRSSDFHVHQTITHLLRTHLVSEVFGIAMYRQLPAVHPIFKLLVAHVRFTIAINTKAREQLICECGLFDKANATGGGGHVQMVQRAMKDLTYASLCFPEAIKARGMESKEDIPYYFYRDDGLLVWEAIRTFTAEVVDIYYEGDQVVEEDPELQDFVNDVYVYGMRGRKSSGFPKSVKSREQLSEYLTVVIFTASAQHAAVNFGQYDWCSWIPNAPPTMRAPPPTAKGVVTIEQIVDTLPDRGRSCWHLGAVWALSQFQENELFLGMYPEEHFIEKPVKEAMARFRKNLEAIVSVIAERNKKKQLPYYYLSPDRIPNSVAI

Legend:
[1] = target: 5-lipoxygenase (5-LOX) enzyme (Homo sapiens, UniProt P09917); test: 5-LOX inhibitory assay; conditions: for 5-LOX percent inhibition: mean ± SEM, n = 3; for IC50: read-out: 5-LOX IC50
[2] = DPPH free radical scavenging (antioxidant) assay; conditions: for DPPH percent inhibition: mean ± SEM, n = 3; for IC50: read-out: DPPH IC50
Experimental: The previously outlined methodology will be employed to evaluate the compounds’ antioxidant ability, as determined by the processes of the 1,1-diphenyl, 2-picrylhydrazyl (DPPH) free radical. The experimental specimens will be subjected to dilution using different quantities, spanning from 62.5 to 1000 μg/ml, and afterwards introduced into a methanolic solution of DPPH at a concentration of 0.004%. At 517 nm, the absorbance will be determined by a UV spectrophotometer following a 30-minute duration. The scavenging capability of ascorbic acid will be quantified by employing the equation: DPPH=[(A0−A1)/A0]100 Whereas: […]
Every test was carried out three times, and the median inhibitory dosages (IC50) were determined. The drawing of inhibition graphs was performed by GraphPad Prism software-GraphPAD, San Diego, California, USA.
The IC50 is the concentration of the antioxidant required to scavenge 50% of the initial DPPH radicals. […] The IC50 values were determined from dosage response curve using Microsoft Excel program.

5-LOX percent inhibition ([1]; 62.5 μg/ml) | 5-LOX percent inhibition ([1]; 125 μg/ml) | 5-LOX percent inhibition ([1]; 250 μg/ml) | 5-LOX percent inhibition ([1]; 500 μg/ml) | 5-LOX percent inhibition ([1]; 1000 μg/ml) | IC50 [1] | IC50 [2] | SMILES | DPPH percent inhibition ([2]; 62.5 μg/mL) | DPPH percent inhibition ([2]; 125 μg/mL) | DPPH percent inhibition ([2]; 250 μg/mL) | DPPH percent inhibition ([2]; 500 μg/mL) | DPPH percent inhibition ([2]; 1000 μg/mL)
71.03±1.79% | 75.30±1.67% | 78.30±2.67% | 82.31±1.20% and 82.7% | 86.70±1.20% | 9.8 µM | 54.7 µM | Cc1ccc(C2NC(=O)NC(C(F)(F)F)=C2c2cc(-c3ccco3)on2)cc1 (stereo not drawn) | 61.35±0.18% | 66.2% | 73.42% | 78.62% | 83.53±0.20%
74.80±1.41% | 77.51±0.59% | 81.90±1.32% | 85.94±0.91% | 89.93±1.73% | 8.47 µM | 11 µM | COc1ccc(C2NC(=O)NC(C(F)(F)F)=C2c2cc(-c3ccccc3)on2)cc1O (stereo not drawn) | 75.72±0.51% | 79.37±0.69% | 82.25±0.55% | 87.65±0.70% | 92.51±0.62%
